Reference: ChEMBL document CHEMBL3817772, “Design, Synthesis, and Biological Evaluations of Hydroxypyridonecarboxylic Acids as Inhibitors of HIV Reverse Transcriptase Associated RNase H” (J Med Chem, 2016)

What was measured:
[1] = Inhibition of HIV-1 RT-RNase H activity expressed in Escherichia coli JM109 using RNA 5'-end directed cleavage measuring HTS-3 as substrate by fluorescence-based assay; design: species or system Human immunodeficiency virus 1
Summary of the method: (§1)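 RT RNase H cleavage of fluorescein/Dabcyl-labelled RNA/DNA duplexes, with substrate in excess over RT. HTS-1 probes internal cleavage, HTS-2 DNA 3'-end-directed cleavage, and HTS-3 (fluorescein RNA annealed to Dabcyl DNA) RNA 5'-end-directed cleavage.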

[2] = Inhibition of HIV-1 RT-RNase H domain fragment expressed in Escherichia coli by fluorescence-based assay; design: species or system Human immunodeficiency virus 1
[3] = Inhibition of HIV-1 RT-RNase H activity expressed in Escherichia coli JM109 using DNA 3'-end directed cleavage measuring HTS-2 as substrate by fluorescence-based assay; design: species or system Human immunodeficiency virus 1; summary of the method: as §1
[4] = biological target: Human immunodeficiency virus type 1 reverse transcriptase (Human immunodeficiency virus 1, UniProt Q72547); experiment: Inhibition of HIV-1 RT RNA-dependent DNA polymerase activity expressed in Escherichia coli JM109 using [3H]TTP/ poly(rA)-oligo(dT)16 as substrate incubated for 20 mins by liquid scintillation spectrometric analysis
Summary of the method: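 RNA-dependent DNA polymerase reaction in 50 mM Tris-HCl pH 7.4 (37°C), 60 mM KCl, 5 mM MgCl2, with 10 µM [3H]-TTP and 40 nM poly(rA)-oligo(dT)16. Started with 10 nM RT, 20 min at 37°C. Quenched in ice-cold 10% TCA plus 20 mM sodium pyrophosphate, glass-fiber filtered, washed with TCA and ethanol. Incorporation counted by liquid scintillation.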

[5] = Inhibition of HIV-1 RT-RNase H activity expressed in Escherichia coli JM109 using internal cleavage measuring HTS-1 as substrate by fluorescence-based assay; design: species or system Human immunodeficiency virus 1; summary of the method: as §1

| Structure (SMILES) | IC50 [1] [µM] | IC50 [2] [µM] | IC50 [3] [µM] | IC50 [4] [µM] | IC50 [5] [µM] |
| --- | --- | --- | --- | --- | --- |
| O=C(O)c1cn(Cc2ccc(-c3cnc4ccccc4c3)cc2)cc(O)c1=O | 0.9 | 1 | 1.2 | 1.1 | – |
| O=C(O)c1cn(Cc2cccc(C(F)(F)F)c2)cc(O)c1=O | – | 11 | – | – | 18 |
| O=C(O)c1cn(Cc2ccc(Cl)cc2)cc(O)c1=O | – | 7.8 | – | – | 17 |
| O=C(O)c1cn(Cc2cccc3ccccc23)cc(O)c1=O | 5.4 | 1.9 | 4.3 | 8.5 | 2.7 |
| O=C(O)c1cn(Cc2ccc(-c3cccnc3)cc2)cc(O)c1=O | 15 | 2.6 | 10 | – | 3.6 |
| COc1ccc(Cn2cc(O)c(=O)c(C(=O)O)c2)cc1 | 20 | 4.8 | 15 | – | 2.5 |
